Inhibition data for 24 compounds are collected here from PubChem BioAssay AID1974 (The Scripps Research Institute Molecular Screening Center, 2009).

Sequences of proteins named here, by UniProt entry; tags and fusion partners are left off.
UniProt P78417, whole entry: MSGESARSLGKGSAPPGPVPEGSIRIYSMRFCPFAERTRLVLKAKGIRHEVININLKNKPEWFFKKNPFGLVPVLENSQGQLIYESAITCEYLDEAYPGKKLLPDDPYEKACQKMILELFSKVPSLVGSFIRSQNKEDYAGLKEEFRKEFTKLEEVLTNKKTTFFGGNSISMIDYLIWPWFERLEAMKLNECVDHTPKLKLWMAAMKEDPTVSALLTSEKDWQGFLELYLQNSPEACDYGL

The entries are a selection whose mix differs from that of the whole data set. Some of these compounds have results that are not shown, active ones among them. Calls of active or inactive are those of the source.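 Rule for the calls: active = inhibition above the campaign mean inhibition plus 3 SD (cut at about 35% in these data); inactive = the rest.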

For this experiment, the target named is Glutathione S-transferase omega-1 (Homo sapiens) (UniProt P78417). Description: human GSTO1 enzyme inhibition – biochemical, fluorescence polarization, counter-screen for RBBP9 inhibitor project, primary screen (AID 1974).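 Note: 0% = GSTO1-1 with DMSO and 100% = wells lacking GSTO1-1 enzyme.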 To be noted: recombinant GSTO1, activity-based probe fluorescence polarization; at 5.96 µM; active compounds read high. Background: In fluorescence polarisation assays a small probe gives low polarisation when free and higher when bound to something large.
Take `COc1ccc(C(=O)NCC2(N(C)C)CCCCC2)cc1`: the inhibition (in general, the change of the read-out against control, counted positive when it falls) was inactive: -1.14%. Consider `CCN1CCCC(OC(=O)C2(O)c3ccccc3C=Cc3ccccc32)C1` (centres undefined), for which the inhibition is inactive: 0.86%. As to `Cc1cc(C(=O)NCC2(N3CCCCC3)CCCCC2)ccc1[N+](=O)[O-]`, the inhibition was inactive: -1.31%. As for `O=C(NCC1(N2CCCCC2)CCCCC1)c1cccc(Br)c1`, the figure is inactive: -0.88%; as for `C=CCN1CCN(CCOC(=O)C(O)(c2ccccc2)c2ccccc2)CC1`, inactive: 4.05%; as for `O=C(NCC1(N2CCCCC2)CCCCC1)c1cc(F)c(F)cc1Cl`, inactive: 3.46%. As for `Cc1ccccc1C(=O)NCC1(N2CCCCC2)CCCCC1`, the figure is inactive: 1.07%. Turning to `CN(C)c1ccc(C(=O)NCC2(N(C)C)CCCCC2)cc1`, the inhibition was inactive: 4.38%.

For the compound `CN(C)C1CCCC1OC(=O)C(O)(c1ccccc1)c1ccccc1` (centres undefined), the inhibition is inactive: 1.96%. The value for `Cc1ccc(C(=O)NCC2(N3CCCCC3)CCCCC2)cc1` was inactive: 5.19%; that for `CCN(CC)CC(C)C(C)OC(=O)C(O)(c1ccccc1)c1ccccc1` (centres undefined) was inactive: -1.37%; that for `COc1cc(SC)ccc1C(=O)NCC1(N(C)C)CCCCC1` was inactive: -2.56%. As for `CC(C)N1C(=O)CC2(CCN(CCOC(=O)C(O)(c3ccccc3)c3ccccc3)CC2)C1=O`, the figure is inactive: 1.22%. The value for `CN1[C@@H]2CC[C@H]1CC(OC(=O)C(O)(c1ccccc1)c1ccccc1)C2` (some centres undefined) was inactive: -3.96%; that for `O=C(NCC1(N2CCCCC2)CCCCC1)c1cc([N+](=O)[O-])ccc1Cl` was inactive: 5.25%; that for `CC(C)Oc1ccc(C(=O)NCC2(N(C)C)CCCCC2)cc1` was inactive: 0.04%. Consider `CN(C)c1cccc(C(=O)NCC2(N(C)C)CCCCC2)c1`, for which the inhibition was inactive: -4.2%.

With `COc1ccc(Br)c(C(=O)NCC2(N3CCCCC3)CCCCC2)c1`, the inhibition was inactive: 10.3%. For `O=C(OC1CN2CCC1CC2)C(CO)(c1ccccc1)c1ccccc1` (centres undefined), the inhibition is inactive: 2.59%. The value for `O=C(NCC1(N2CCCCC2)CCCCC1)c1cccc(Cl)c1` was inactive: 6.51%.

Take `COc1cccc(C(=O)NCC2(N3CCCCC3)CCCCC2)c1`: the inhibition is inactive: -3.08%. Take `COc1ccc(Cl)cc1C(=O)NCC1(N(C)C)CCCCC1`: the inhibition was inactive: 4.82%. As to `COc1cc(C(=O)NCC2(N(C)C)CCCCC2)c([N+](=O)[O-])cc1OC`, the inhibition was inactive: 2.9%.

For the compound `CN(C)C1(CNC(=O)c2ccc(Br)cc2)CCCCC1`, the inhibition was inactive: 2.9%.
